Molecular target: Mpc1 (Mpc1/Mpc3 hetero-dimer, mitochondrial pyruvate carrier) (Saccharomyces cerevisiae, UniProt P53157+P53311)
Assay: biochemical

Sequences of proteins named here, by UniProt entry; tags and fusion partners are left off. A change or cut given only in a name is not applied to a line headed by its entry. Residues count along the entry.
UniProt P53157: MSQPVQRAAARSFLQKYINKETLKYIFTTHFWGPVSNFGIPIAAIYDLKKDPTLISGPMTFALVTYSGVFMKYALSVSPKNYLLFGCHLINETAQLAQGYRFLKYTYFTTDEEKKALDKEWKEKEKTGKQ
UniProt P53311, 21-146: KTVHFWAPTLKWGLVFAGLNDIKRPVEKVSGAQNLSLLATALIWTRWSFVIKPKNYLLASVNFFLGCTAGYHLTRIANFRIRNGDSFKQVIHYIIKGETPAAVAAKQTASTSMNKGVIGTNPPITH

SMILES: CCCOc1ccccc1-c1nc2nn[nH]c2c(=O)[nH]1 [Zaprinast]
- IC50: 18 ± 8 µM

Source: publication PMC6517818, “The yeast mitochondrial pyruvate carrier is a hetero‐dimer in its functional state” (The EMBO Journal, 2019)
